The term inhibition denotes the drop in the measured response relative to a control, in per cent.

Amino acid sequences for entries named in this document (tags omitted).
UniProt P63073, whole entry, looked up: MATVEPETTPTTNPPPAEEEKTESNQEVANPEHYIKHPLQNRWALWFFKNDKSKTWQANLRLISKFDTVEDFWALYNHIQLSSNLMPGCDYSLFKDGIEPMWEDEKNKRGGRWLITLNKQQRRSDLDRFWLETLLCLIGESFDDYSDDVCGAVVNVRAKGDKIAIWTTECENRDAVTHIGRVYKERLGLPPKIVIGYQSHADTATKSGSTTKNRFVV
UniProt Q04637, whole entry, looked up: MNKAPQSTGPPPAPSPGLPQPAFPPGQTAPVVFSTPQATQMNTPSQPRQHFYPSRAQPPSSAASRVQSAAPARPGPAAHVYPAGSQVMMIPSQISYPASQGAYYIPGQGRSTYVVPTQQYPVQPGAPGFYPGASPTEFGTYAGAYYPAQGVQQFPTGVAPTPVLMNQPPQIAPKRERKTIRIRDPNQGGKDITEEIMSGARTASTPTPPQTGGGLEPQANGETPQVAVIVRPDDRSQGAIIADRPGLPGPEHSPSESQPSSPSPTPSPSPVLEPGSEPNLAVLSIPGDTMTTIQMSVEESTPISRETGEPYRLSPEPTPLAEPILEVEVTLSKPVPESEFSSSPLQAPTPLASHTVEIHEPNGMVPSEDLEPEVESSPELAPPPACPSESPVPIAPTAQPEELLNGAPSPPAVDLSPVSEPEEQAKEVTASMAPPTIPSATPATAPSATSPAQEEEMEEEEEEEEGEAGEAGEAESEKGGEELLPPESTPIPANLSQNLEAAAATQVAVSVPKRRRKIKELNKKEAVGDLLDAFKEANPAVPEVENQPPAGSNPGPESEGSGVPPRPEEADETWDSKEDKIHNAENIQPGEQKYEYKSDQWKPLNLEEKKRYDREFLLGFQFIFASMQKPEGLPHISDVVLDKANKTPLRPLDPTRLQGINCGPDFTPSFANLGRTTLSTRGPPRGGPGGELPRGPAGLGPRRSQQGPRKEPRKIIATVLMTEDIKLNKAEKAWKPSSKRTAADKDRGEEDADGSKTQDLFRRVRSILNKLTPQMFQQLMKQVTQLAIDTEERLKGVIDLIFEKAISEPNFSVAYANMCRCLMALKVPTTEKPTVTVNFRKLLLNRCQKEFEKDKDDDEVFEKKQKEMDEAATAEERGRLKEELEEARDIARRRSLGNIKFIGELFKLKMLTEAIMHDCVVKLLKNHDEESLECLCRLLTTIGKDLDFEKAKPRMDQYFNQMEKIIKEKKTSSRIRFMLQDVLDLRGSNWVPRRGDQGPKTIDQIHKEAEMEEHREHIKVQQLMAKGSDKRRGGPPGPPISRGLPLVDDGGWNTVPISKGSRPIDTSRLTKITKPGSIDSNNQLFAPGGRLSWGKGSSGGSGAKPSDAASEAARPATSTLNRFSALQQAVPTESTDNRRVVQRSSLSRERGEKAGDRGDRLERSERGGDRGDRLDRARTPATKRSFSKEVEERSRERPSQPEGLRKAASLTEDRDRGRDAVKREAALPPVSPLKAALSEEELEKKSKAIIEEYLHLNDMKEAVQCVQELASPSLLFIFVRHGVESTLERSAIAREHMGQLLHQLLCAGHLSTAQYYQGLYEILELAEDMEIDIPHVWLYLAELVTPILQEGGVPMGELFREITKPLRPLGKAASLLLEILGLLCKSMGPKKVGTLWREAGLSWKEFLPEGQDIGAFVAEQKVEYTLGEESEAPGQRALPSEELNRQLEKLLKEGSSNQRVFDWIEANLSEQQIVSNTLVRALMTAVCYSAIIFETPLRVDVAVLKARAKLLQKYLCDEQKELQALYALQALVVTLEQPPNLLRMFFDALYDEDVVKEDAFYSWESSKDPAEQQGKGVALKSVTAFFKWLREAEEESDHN

Where “and” joins values, the source holds several entries; their conditions need not be identical. Identical values can stand only once. Only a part is listed here, and it is no random draw. Calls of active or inactive are those of the source.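 The calls were made as follows: active = inhibition above about 30% (limit read from the data); inactive = the rest.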

In this test the target is Eukaryotic translation initiation factor 4E (Mus musculus) + Eukaryotic translation initiation factor 4 gamma 1 (Homo sapiens) (UniProt P63073+Q04637). Put plainly: eIF4E–eIF4G protein interaction inhibitors, primary screen, biochemical, uHTS, TR-FRET, eIF4GI fragment (AID 782).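 Also: 0% = full FRET control wells and 100% = background wells lacking eIF4GI fragment.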 As to conditions: TR-FRET eIF4E-eIF4GI(517-606) binding, 2 h; at 21.7 µM; active compounds read high. Background: Time-resolved FRET reads energy transfer from a long-lived donor to a nearby acceptor.
Turning to `CCc1nc2c(n1)c1c(non1O)c1c2no[n+]1[O-]`, the inhibition was inactive: -8.3%.

On to `O=[N+]([O-])c1cc([N+](=O)[O-])c(CCNc2ccccc2)c([N+](=O)[O-])c1`, for which the inhibition was inactive: 2.43%.

`Cc1ccc(NP(=O)(Oc2ccccc2)Oc2ccccc2)nc1`: the inhibition is inactive: -1.59%.

`O=[N+]([O-])c1cccc2n[nH]nc12`: the inhibition was inactive: 7.13%.

As to `CC(=O)N1C2C3N(C(C)=O)C1C1N(C(C)=O)C(C(N1C(C)=O)N3C(C)=O)N2C(C)=O`, the inhibition is inactive: 4.16%.

With `CCN(/C(=N/P(=O)(N1CCOCC1)N1CCOCC1)N1CCOCC1)c1ccc(OC)cc1`, the inhibition is inactive: 1.18%.

With `C[N+]1=C2C=CC=CC=C2SC12C([N+](=O)[O-])=CC([N+](=O)[O-])=C[C-]2[N+](=O)[O-]` (stereo not drawn), the inhibition is inactive: 6.98%.

Take `Nc1ccc([As](=O)(O)c2ccc(N)cc2)cc1`: the inhibition is inactive: 0.27%.

Regarding `CC1CCN(C(=O)Oc2c(Cl)cc(Cl)c3cccnc23)CC1`, the inhibition was inactive: 1.47%.

For the molecule `CN(C)C(=O)OCCc1n(C)cc[n+]1C`, the inhibition is inactive: 22.1%.

In the case of `CC(C)=N/N=C(\N)N[N+](=O)[O-]`, the inhibition is inactive: 1.89%.

`Cc1ccc(N/C(=N/P(=O)(N2CCOCC2)N2CCOCC2)N2CCOCC2)cc1`: the inhibition is inactive: 0.31%.

Regarding `NC(=O)c1cc([N+](=O)[O-])cc([N+](=O)[O-])c1N`, the inhibition was inactive: -2.28%.

With `CN1CCCC(OC(=O)C(c2ccccc2)c2ccccc2)C1` (stereo not drawn), the inhibition is inactive: -4.23%.

Turning to `Clc1ccc(Cl)c(NC2=NCC(CBr)S2)c1` (stereo not drawn), the inhibition is inactive: 2.66%.

On to `Cc1ccc(OP(=O)(Nc2nccs2)Oc2ccc(C)cc2)cc1`, for which the inhibition is inactive: 0.27%.

`COc1ccccc1OP(=O)(Nc1ccc(C)cn1)Oc1ccccc1OC`: the inhibition is inactive: 1.42%.

`O=C(NC(Sc1ccncn1)C(Cl)(Cl)Cl)c1ccccc1` (stereo not drawn): the inhibition was active: 48.4%.

`Cc1c2non([O-])c-2c(C)[n+](=O)[n+]1[O-]`: the inhibition was inactive: -4%.

On to `Oc1ccccc1CNc1ccccn1`, for which the inhibition was inactive: 3.09%.

On to `Nc1cc(N)c2nonc2c1[N+](=O)[O-]`, for which the inhibition is inactive: 0.27%.

For the molecule `CC(C)CC(=O)NC(Sc1ccc(Cl)cc1)C(Cl)(Cl)Cl` (stereo not drawn), the inhibition is inactive: -8.81%.

With `O=P(Nc1nc2ccc(Cl)cc2s1)(c1ccccc1)c1ccccc1`, the inhibition is inactive: -2.36%.

Regarding `CC(=O)Nc1ccc([As](=O)(O)O)cc1`, the inhibition is inactive: -10%.

For the molecule `O=C(O)c1ccccc1[As](=O)(O)O`, the inhibition is inactive: 5.05%.

As to `Cc1ccc(NP(=O)(Oc2ccccc2F)Oc2ccccc2F)nc1`, the inhibition is inactive: -1.65%.

As for `Cc1cc(SC(NC(=O)c2ccc(F)cc2)C(Cl)(Cl)Cl)ncn1` (stereo not drawn), the inhibition is inactive: 6.8%.

Consider `CCOP(=O)(Nc1ccccc1)OCC`, for which the inhibition was inactive: 4.38% and inactive: -1.22%.
